{
  "sequences": {"note": "The chains behind the UniProt entries cited, without tags or fusion partners. Where a name states a change or a piece, a line headed by the entry shows the natural chain unless it says otherwise.", "UniProt P08684": "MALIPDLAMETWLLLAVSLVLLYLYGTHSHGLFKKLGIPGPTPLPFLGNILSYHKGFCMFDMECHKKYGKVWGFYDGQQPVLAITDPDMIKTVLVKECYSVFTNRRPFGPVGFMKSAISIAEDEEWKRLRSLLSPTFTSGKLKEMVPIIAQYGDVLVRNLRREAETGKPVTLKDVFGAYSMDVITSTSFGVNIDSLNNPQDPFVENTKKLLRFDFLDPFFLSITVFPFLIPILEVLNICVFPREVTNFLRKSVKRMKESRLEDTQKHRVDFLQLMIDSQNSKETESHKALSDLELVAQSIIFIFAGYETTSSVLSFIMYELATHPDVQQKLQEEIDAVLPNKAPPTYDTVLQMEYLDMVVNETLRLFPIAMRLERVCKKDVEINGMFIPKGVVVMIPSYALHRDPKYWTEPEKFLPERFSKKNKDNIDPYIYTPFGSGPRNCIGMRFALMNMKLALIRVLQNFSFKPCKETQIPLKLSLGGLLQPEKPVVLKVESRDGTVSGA"},
  "source": "paper PMC3828125",
  "about": "(Biochemistry, 2011)",
  "molecular_target": "CYP3A4 (Homo sapiens, UniProt P08684, S18F)",
  "details": "260 μM Carbamazepine alone, 1 μM CYP3A4; eq 6",
  "data": [
    {"smiles": "NC(=O)N1c2ccccc2C=Cc2ccccc21", "note": "[CBZ, carbamazepine]", "values": [
      {"measurement": "rapp, proton peak aa′", "value": "7.88±0.45", "unit": "Å"}
    ]}
  ]
}
